Measured values from US5753673A, “Quinolinecarboxylic acid derivatives” (Taisho Pharmaceutical Co., Ltd., priority 1994, dated 1998).

Chains of the proteins cited; added tags and fusions are not shown. Residues count along the entry.
UniProt P61169, whole entry: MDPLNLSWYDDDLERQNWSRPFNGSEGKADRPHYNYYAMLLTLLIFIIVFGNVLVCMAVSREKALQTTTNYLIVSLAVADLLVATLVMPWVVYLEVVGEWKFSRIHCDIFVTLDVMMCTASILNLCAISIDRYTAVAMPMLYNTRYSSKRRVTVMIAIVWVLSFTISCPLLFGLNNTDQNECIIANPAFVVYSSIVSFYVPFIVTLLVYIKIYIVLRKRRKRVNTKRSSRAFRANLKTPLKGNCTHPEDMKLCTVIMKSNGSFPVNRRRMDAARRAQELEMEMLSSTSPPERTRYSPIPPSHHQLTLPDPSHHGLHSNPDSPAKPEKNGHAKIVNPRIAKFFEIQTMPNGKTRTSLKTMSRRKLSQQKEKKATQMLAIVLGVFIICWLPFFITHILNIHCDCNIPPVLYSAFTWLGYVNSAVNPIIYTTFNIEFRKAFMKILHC
UniProt P35563, 24-483: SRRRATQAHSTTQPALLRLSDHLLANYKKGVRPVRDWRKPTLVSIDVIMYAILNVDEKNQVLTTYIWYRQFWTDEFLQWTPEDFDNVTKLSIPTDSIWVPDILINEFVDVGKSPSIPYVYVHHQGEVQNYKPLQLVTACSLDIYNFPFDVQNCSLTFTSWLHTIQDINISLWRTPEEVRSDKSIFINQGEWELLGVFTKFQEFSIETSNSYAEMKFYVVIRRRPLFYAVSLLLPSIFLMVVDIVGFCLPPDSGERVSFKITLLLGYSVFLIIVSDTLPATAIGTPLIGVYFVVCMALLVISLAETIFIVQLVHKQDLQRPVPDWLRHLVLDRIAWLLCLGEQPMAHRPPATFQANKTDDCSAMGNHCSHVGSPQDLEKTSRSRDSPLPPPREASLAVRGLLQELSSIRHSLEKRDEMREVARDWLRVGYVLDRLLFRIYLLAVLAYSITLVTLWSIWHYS

Columns and labels:
Dopamine D2 receptor = target: T1, Dopamine D2 receptor (Rattus norvegicus, UniProt P61169); experiment: Selectivity for receptors: dopamine D2 receptor, inhibition of [^3 H] raclopride binding to rat striatal membrane
T1 construct: The rat striatum was homogenized in 50 mM Tris hydrochloride buffer; from tissue; host or cells: rat striatal membranes
Description: (§1) The selectivity for receptors of the quinolinecarboxylic acid derivatives of the present invention was examined by the following method.
The affinity to dopamine 2 (D2) receptor was examined according to the method described in MALMBERG, A. et al., Mol Pharmacol., 43, 749-754 (1993).
The affinity for D2 receptor was studied in terms of the inhibition of [^3 H] raclopride (Daiichi Kagaku Yakuhin Co.) binding to rat striatal membrane. The rat striatum was homogenized in 50 mM Tris hydrochloride buffer (pH 7.4) followed by centrifugation at 48,000 G. The pellet was washed once with Tris hydrochloride buffer. Then the pellet was suspended in 50 mM Tris hydrochloride buffer (containing 120 mM NaCl, 5 mM KCl, 2 mM CaCl2, 1 mM MgCl2, pH 7.4) and provided for use as the membrane preparation. The membrane preparation (0.5 mg protein/ml) was reacted with 1 nM [3H] raclopride at 25° C. for 60 minutes. After the reaction, the membrane was caught by a harvester. Non-specific binding was defined as that taken in the presence of 10 μM haloperidol.

5-HT3 receptor = target: T2, 5-HT3 receptor (Rattus norvegicus, UniProt P35563); experiment: Selectivity for receptors: 5-HT3 receptor, inhibition of [^3 H]GR65630 binding to rat cerebral cortex membrane
T2 construct: The rat cerebral cortex was homogenized in 50 mM Tris hydrochloride buffer; from tissue; host or cells: rat cerebral cortex membranes
Description: as §1
The affinity for serotonin 3 receptor was examined by the method described in […], G. J. et al., Nature (London), 330, 746-748 (1987).
The affinity to serotonin 3 (5-HT3) was examined in terms of inhibition of [^3 H]GR65630 binding (Daiichi Kagaku Yakuhin Co.) binding to rat cerebral cortex membrane. The rat cerebral cortex was homogenized in 50 mM Tris hydrochloride buffer (pH 7.4) followed by centrifugation at 48,000 G. The precipitates were washed once with Tris hydrochloride buffer. Then the precipitates were suspended in 50 mM Tris hydrochloride buffer and provided for use as the membrane preparation. The membrane preparation was reacted with 0.2 nM [^3 H]GR65630 at 37° C. for 30 minutes. After the reaction, the membrane was caught by a harvester. Non-specific binding was defined as the binding taken in the presence of 1 μM zacopride.

With `COc1cc(N)c(Cl)cc1C(=O)N[C@@H]1CCN(CCCOc2ccc(F)cc2)C[C@@H]1OC` (relative stereo) [Comparative Compound 1, Cisapride, reference compound] the IC50 (Dopamine D2 receptor) was 108 nM and the IC50 (5-HT3 receptor) was 97.7 nM.
